Measurements as given in patent publication US8404646B2, “Methods for preventing or treating mitochondrial permeability transition” (Cornell Research Foundation, Inc., priority 2003, dated 2013).

The chains behind the UniProt entries cited, without tags or fusion partners.
UniProt P35372, whole entry, species assumed: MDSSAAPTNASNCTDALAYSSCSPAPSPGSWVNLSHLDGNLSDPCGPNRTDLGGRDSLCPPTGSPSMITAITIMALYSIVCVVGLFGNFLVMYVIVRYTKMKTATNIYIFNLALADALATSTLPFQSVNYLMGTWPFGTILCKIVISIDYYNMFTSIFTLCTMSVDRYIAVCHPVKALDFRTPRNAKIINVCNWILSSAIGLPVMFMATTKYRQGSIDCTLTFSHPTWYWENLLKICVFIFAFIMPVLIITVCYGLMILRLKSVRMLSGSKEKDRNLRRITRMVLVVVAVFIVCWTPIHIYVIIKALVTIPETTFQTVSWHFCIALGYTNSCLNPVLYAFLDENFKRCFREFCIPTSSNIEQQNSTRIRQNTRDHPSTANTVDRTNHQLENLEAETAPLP

Assays:
[1] = system: isolated mouse liver mitochondria; assay: Uptake into isolated mitochondria (fluorescence quenching, radioactivity in pellet); assay type: in vitro ADME; conditions: 5-30 min at 37° C.; assuming matrix volume 0.7 μl/mg protein
Protocol: FIG. 1: Cellular internalization and accumulation of [Dmt^1]DALDA (SS-02) in mitochondria. (FIG. 1A) Mitochondrial uptake of SS-19 was determined using fluorescence spectrophotometry (ex/em=320/420 nm). […] Pretreatment of mitochondria with FCCP (1.5 μM) reduced quenching by <20% (black line). (FIG. 1B) Isolated mitochondria were incubated with [^3H]SS-02 at 37° C. for 2 min. Uptake was stopped by centrifugation (16000×g) for 5 min at 4° C., and radioactivity determined in the pellet. Pretreatment of mitochondria with FCCP inhibited [^3H]SS-02 uptake by ˜20%. Data are shown as mean±s.e.; n=3. *, P<0.05 by Student's t-test. […] Black line, TMRM; red line, SS-19. […]
The pellet was resuspended in liver homogenate medium and the homogenization repeated twice. […] Protein concentration in the mitochondrial preparation was determined by the Bradford procedure.
Approximately 1.5 mg mitochondria in 400 μl buffer was incubated with [^3H][Dmt^1]DALDA for 5-30 min at 37° C. The mitochondria were then centrifuged down and the amount of radioactivity determined in the mitochondrial fraction and buffer fraction. […]
To confirm that the mitochondrial targeting was not an artifact of the fluorophore, we also examined mitochondrial uptake of [^3H][Dmt^1]DALDA. Isolated mitochondria were incubated with [^3H][Dmt^1]DALDA and radioactivity determined in the mitochondrial pellet and supernatant. […]

Caco-2 = assay: Cellular uptake of [3H][Dmt1]DALDA into cell monolayers; assay type: cell-based, human; conditions: estimated
Protocol: The cellular uptake of [^3H][Dmt^1]DALDA was studied using a human intestinal epithelial cell line (Caco-2), and confirmed with SH-SY5Y (human neuroblastoma cell), HEK293 (human embryonic kidney cell) and CRFK cells (kidney epithelial cell). Monolayers of cells were grown on 12-well plates (5×10^5 cells/well) coated with collagen for 3 days. On day 4, cells were washed twice with pre-wanned HBSS, and then incubated with 0.2 ml of HBSS containing either 250 nM [^3H][Dmt^1]DALDA at 37° C. or 4° C. for various times up to 1 h.
In a separate experiment, cells were incubated with a range of [Dmt^1]DALDA concentrations (1 μM-3 mM) for 1 h at 37° C. At the end of the incubation period, cells were washed 4 times with HBSS, and 0.2 ml of 0.1N NaOH with 1% SDS was added to each well. The cell contents were then transferred to scintillation vials and radioactivity counted. To distinguish between internalized radioactivity from surface-associated radioactivity, an acid-wash step was included. Prior to cell lysis, cells were incubated with 0.2 ml of 0.2 M acetic acid/0.05 M NaCl for 5 min on ice.

[2] = system: isolated mouse liver mitochondria; assay: Mitochondrial respiration (oxygen consumption); assay type: biochemical; conditions: 100 μM
mu-opioid receptor = mu-opioid receptor (Homo sapiens, UniProt P35372); conditions: cited from earlier work

For “2′,6′-dimethyltyrosine-D-Arg-Phe-Lys-NH2 [SS-02]”, the “concentration in mitochondria relative to buffer” value [1] was 200 times, the “intracellular concentration relative to extracellular concentration” value (Caco-2) was “approximately 50 times” and the “respiratory ratio (state 3/state 4)” value [2] was 6.2 versus 6.0. For the same substance, the “mu-opioid receptor agonist activity” value (mu-opioid receptor) was “potent mu-opioid receptor agonist”.
